Columns and labels:
Type in all cases: functional, organism-based
[1] = target: T1, Arginase-1 (Mus musculus) (UniProt Q61176); experiment: In vivo inhibition of Arg1 in female B6C3F1 mouse xenografted with mouse Ag104Ld cells assessed as fold increase in tumor arginine at 30 mg/kg, po measured after 24 hrs in presence of anti-PD-L1 by LC-MS-MS analysis
T1 sequence (whole entry): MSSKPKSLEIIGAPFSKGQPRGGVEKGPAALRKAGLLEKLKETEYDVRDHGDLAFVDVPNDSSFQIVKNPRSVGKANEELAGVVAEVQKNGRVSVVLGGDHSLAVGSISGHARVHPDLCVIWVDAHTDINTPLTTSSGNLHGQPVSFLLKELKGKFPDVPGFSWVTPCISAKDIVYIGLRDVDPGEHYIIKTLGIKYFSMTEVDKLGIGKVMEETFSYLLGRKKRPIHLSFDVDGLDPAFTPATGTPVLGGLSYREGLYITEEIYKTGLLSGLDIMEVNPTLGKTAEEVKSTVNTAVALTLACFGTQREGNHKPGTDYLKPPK

[2] = target: T1, Arginase-1 (Mus musculus); experiment: In vivo inhibition of Arg1 in female B6C3F1 mouse xenografted with mouse Ag104Ld cells assessed as fold decrease in tumor ornithine at 30 mg/kg, po measured after 24 hrs by LC-MS-MS analysis
[3] = target: T1, Arginase-1 (Mus musculus); experiment: In vivo inhibition of Arg1 in female B6C3F1 mouse xenografted with mouse Ag104Ld cells assessed as fold increase in tumor arginine at 30 mg/kg, po measured after 24 hrs by LC-MS-MS analysis
[4] = target: T1, Arginase-1 (Mus musculus); experiment: In vivo inhibition of Arg1 in female B6C3F1 mouse xenografted with mouse Ag104Ld cells assessed as fold decrease in tumor ornithine at 30 mg/kg, po measured after 24 hrs in presence of anti-PD-L1 by LC-MS-MS analysis

fold change (FC) [1]: 9.4
fold change (FC) [2]: 106
fold change (FC) [3]: 10
fold change (FC) [4]: 37
SMILES: CC(C)[C@H](N)C(=O)N[C@H]1CN[C@@](CCCCB(O)O)(C(=O)O)C1
